Values quoted from earlier work in patent publication US20010018095A1, “Method of forming a membrant, especially a latex or polymer membrane, including multiple discrete layers” (priority 1987, published 2001).

Details: candidate solvents for polyurethane and biocide; cited from earlier work

## CN(C)C=O [Dimethyl formamide (DMF), Dimethyl formamide]
  Hydrogen Bonding: medium
